Here are results for 1 compound from ChEMBL document CHEMBL4257588, “Selective Inhibitors of Human Neuraminidase 1 (NEU1)” (J Med Chem, 2018).

The species named for assay [1] is Homo sapiens. The assay is described as follows: Selectivity index, ratio of IC50 for inhibition of N-terminal MBP-fused human NEU3 expressed in Escherichia coli to IC50 for inhibition of human His6-tagged NEU1 expressed in HEK293 cells.
The species named for assay [2] is Homo sapiens. The assay is described as follows: Selectivity index, ratio of IC50 for inhibition of N-terminal MBP-fused human NEU2 expressed in Escherichia coli to IC50 for inhibition of human His6-tagged NEU1 expressed in HEK293 cells.

Molecules are shown by their SMILES.

For `CCCCCC(=O)N[C@H]1[C@H]([C@H](O)[C@H](O)CNC(C)=O)OC(C(=O)O)=C[C@@H]1O`, the Ratio IC50 in the assay filed under Homo sapiens [1] and in the assay filed under Homo sapiens [2] was 340 in each case.
